Results reported in patent US9371290B2, “Pyridazinone compounds” (BIOTIE THERAPIES CORPORATION, priority 2011, dated 2016).

Protein sequences, listed by entry. Tags and fused reporters are not part of them.
UniProt Q16853, whole entry: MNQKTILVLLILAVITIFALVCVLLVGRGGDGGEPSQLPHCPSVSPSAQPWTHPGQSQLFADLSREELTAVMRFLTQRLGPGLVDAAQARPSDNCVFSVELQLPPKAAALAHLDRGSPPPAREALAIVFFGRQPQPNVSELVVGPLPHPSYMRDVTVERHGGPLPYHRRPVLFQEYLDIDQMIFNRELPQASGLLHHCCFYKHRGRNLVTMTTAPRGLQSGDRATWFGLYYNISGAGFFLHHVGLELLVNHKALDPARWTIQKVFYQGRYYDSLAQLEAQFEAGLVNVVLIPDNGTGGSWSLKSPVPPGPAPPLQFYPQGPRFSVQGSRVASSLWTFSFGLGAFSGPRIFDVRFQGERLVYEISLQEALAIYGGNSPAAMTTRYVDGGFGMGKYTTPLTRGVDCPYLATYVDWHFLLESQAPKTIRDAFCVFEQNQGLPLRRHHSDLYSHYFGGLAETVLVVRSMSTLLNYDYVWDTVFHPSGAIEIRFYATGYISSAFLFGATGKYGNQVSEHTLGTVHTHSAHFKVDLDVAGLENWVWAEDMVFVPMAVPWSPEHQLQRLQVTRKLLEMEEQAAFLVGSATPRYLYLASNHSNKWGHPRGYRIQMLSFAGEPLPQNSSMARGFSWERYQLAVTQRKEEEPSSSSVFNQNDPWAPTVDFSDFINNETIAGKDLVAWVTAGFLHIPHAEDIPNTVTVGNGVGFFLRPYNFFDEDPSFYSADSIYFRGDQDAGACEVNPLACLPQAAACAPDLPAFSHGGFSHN

Assays:
Total MAO = test: Total rat MAO activity (rat liver mitochondrial preparation, tyramine substrate); settings: at 100 μM
Procedure: Rat MAO was prepared from rat liver by rinsing the 1 g liver sample several times in 14 ml KCl-EDTA-solution to remove all blood. Then 1 g liver sample was homogenized in 4 ml ice-cold potassium phosphate buffer (0.1 M, pH 7.4) with an Ultra-Turrax homogenizer (setting 11 000 rpm, 4×10 s). After centrifugation at 500 g for 10 min at 4° C. the supernatant was carefully withdrawn and was centrifuged at 12 300 g for 15 min at 4° C. The supernatant was discharged and sedimented mitochondria were resuspended in 4 ml fresh phosphate buffer and centrifuged as previously. The mitochondria were suspended in 4 ml phosphate buffer and homogenized with an Ultra-Turrax homogenizer (setting 11 000 rpm, 2×10 s). Mitochondrial preparate was aliquoted and stored at −70° C. Total MAO activity was measured in a similar way as for VAP-1 SSAO except that SSAO enzyme was replaced by MAO enzyme. To each well was added a predetermined amount of inhibitor if required. […] The plates were incubated for 30 min at 37° C. and the background absorbance measured at 490 nm using a Wallac Victor II multilabel counter. […] The increase in absorbance, reflecting MAO activity, was measured at 490 nm. Inhibition was presented as percent inhibition compared to control after correcting for background absorbance and IC50 values calculated using GraphPad Prism. […]

[1] = molecular target: Recombinant human VAP-1 SSAO (Homo sapiens, UniProt Q16853); test: In vitro inhibition of VAP-1 SSAO activity (coupled colorimetric method, benzylamine substrate); settings: read-out: VAP-1 SSAO Inhibitory activity IC50, CHO cell lysate, 1 mM benzylamine
Procedure: VAP-1 SSAO activity was measured using the coupled colorimetric method essentially as described for monoamine oxidase and related enzymes (Holt, A., et al., Anal. Biochem. 244:384-392 (1997)). Recombinant human VAP-1 SSAO expressed in Chinese Hamster Ovary (CHO) cells was used as a source of VAP-1 SSAO for activity measurements. Native CHO cells have negligible SSAO activity. These cells and their culture have previously been described (Smith, D. J., et al., J. Exp. Med. 188:17-27 (1998)). A cell lysate was prepared by suspending approximately 3.6×10^8 cells in 25 ml lysis buffer (150 mM NaCl, 10 mM Tris-Base pH 7.2, 1.5 mM MgCl2, 1% NP40) and incubating at 4° C. overnight on a rotating table. The lysate was clarified by centrifugation at 18 000 g for 5 min at room temperature and the supernatant used directly in the assay. The VAP-1 SSAO assay was performed in 96 well microtitre plates as follows. To each well was added a predetermined amount of inhibitor if required. […] The plates were incubated for 30 min at 37° C. and the background absorbance measured at 490 nm using a Wallac Victor II multilabel counter. […] The increase in absorbance, reflecting VAP-1 SSAO activity, was measured at 490 nm. Inhibition was presented as percent inhibition compared to control after correcting for background absorbance and IC50 values calculated using GraphPad Prism.

For O=c1cc(NC2CCCCC2)c(-c2nc[nH]n2)cn1-c1ccccc1, the “Total MAO Inhibitory activity (%)” value (Total MAO) was 5% and the IC50 [1] was 170 nM.
